How the values were obtained:
[1] = target: T1, HDM2 (Homo sapiens, UniProt Q00987); test: HDM2 FRET assay (inhibition of binding of FITC labeled p53-pocket peptide to HDM2)
T1 construct: Thioredoxin (N); made in house; host or cells: E. coli strain BL21(DE3)Rosetta

Sequences of proteins named here, by UniProt entry; tags and fusion partners are left off. Residues count along the entry.
UniProt Q00987, 17-125: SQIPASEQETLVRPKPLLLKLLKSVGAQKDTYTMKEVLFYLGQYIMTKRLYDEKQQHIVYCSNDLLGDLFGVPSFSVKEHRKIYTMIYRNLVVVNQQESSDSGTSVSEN

[2] = target: T1, HDM2; test: FRET assay (HDM2 inhibition; method not described in this part); assay type: binding
[3] = 0.5 nM HDM2 (residues 17 to 125), 3nM peptide, two hour incubation at room temperature

Compound `Cc1cccc(-c2nc3nc(C(=O)O)nc(OC(C)C4CCC4)c3n2Cc2ccc(C(F)(F)F)cc2)c1` (racemic) [Example 17.4, 6-(1-cyclobutylethoxy)-8-(3-methylphenyl)-7-[4-(trifluoromethyl)benzyl]-7H-purine-2-carboxylic acid] has an IC50 [1, 3] of 67.1 nM.

Compound `C[C@@H](Nc1nc(-c2noc(=O)[nH]2)nc2nc(N3CCCC4COCCC43)n(C[C@H]3CC[C@H](C)CC3)c12)C1CCC1` (single isomer, unassigned) [Example 11.143] has an IC50 ([1]; Table 11) of 12.6 nM.

For `C[C@@H](Nc1nc(-c2noc(=O)[nH]2)nc2nc(N3CCCC4COCCC43)n(C[C@H]3CC[C@H](C)CC3)c12)C1CCC1` (single isomer, unassigned) [Example 11.144], the IC50 ([1]; Table 11) was 5.67 nM.

Work on `C[C@@H](Nc1nc(-c2noc(=O)[nH]2)nc2nc(N3CCO[C@H](C)[C@@H]3C)n(C[C@H]3CC[C@H](C)CC3)c12)C1CCC1` (single isomer, unassigned) [Example 11.146] yielded an IC50 ([1]; Table 11) of 20.1 nM.

`C[C@@H](Nc1nc(-c2noc(=O)[nH]2)nc2nc(N3CCO[C@H](C)[C@@H]3C)n(C[C@H]3CC[C@H](C)CC3)c12)C1CCC1` (single isomer, unassigned) [Example 11.147] showed an IC50 ([1]; Table 11) of 9.19 nM.

`C[C@@H](Nc1nc(-c2noc(=O)[nH]2)nc2nc(N3CCO[C@H]4CCCC[C@H]43)n(C[C@H]3CC[C@H](C)CC3)c12)C1CCC1` (single isomer, unassigned) [Example 11.159] showed an IC50 ([1]; Table 11) of 12.1 nM.

Compound `C[C@@H](Nc1nc(-c2noc(=O)[nH]2)nc2nc(N3CCO[C@H]4CCCC[C@H]43)n(C[C@H]3CC[C@H](C)CC3)c12)C1CCC1` (single isomer, unassigned) [Example 11.160] has an IC50 ([1]; Table 11) of 3.93 nM.

Work on `C[C@@H]1COCCN1c1nc2nc(-c3noc(=O)[nH]3)nc(N[C@H](C)C3CCC3)c2n1C[C@H]1CC[C@H](C)C(F)(F)C1` (single isomer, unassigned) [Example 18.31] yielded an IC50 ([1]; Table 18) of 8.12 nM.

Work on `C[C@@H]1COCCN1c1nc2nc(-c3noc(=O)[nH]3)nc(N[C@H](C)C3CCC3)c2n1C[C@H]1CC[C@H](C)C(F)(F)C1` (single isomer, unassigned) [Example 18.32] yielded an IC50 ([1]; Table 18) of 11.2 nM.

`COc1ccccc1C(C)(F)c1nc2nc(-c3n[nH]c(=O)o3)nc(-c3cncc(Cl)c3)c2n1C[C@H]1CC[C@H](C)CC1` (single isomer, unassigned) [Example 23.24, 5-{6-(5-chloropyridin-3-yl)-8-[1-fluoro-1-(2-methoxyphenyl)ethyl]-7-[(trans-4-methylcyclohexyl)methyl]-7H-purin-2-yl}-1,3,4-oxadiazol-2(3H)-one] showed an IC50 ([1]; Table 23) of 7.81 nM.

`CC(C)Oc1ccnc(-c2nc3nc(C(=O)O)nc(N[C@H](C)C4CCC4)c3n2Cc2ccc(C(F)(F)F)cc2)c1` [Example 1.59, 6-{[(1R)-1-cyclobutylethyl]amino}-8-[4-(1-methylethoxy)pyridin-2-yl]-7-[4-(trifluoromethyl)benzyl]-7H-purine-2-carboxylic acid] gave an IC50 [2] of 7.05 nM.

With `Cc1cc(CN(C)c2nc3nc(-c4noc(=O)[nH]4)nc(N[C@H](C)C4CCC4)c3n2C[C@H]2CC[C@H](C)CC2)on1` [Example 11.77, 3-(6-{[(1R)-1-cyclobutylethyl]amino}-7-[(trans-4-methylcyclohexyl)methyl]-8-{methyl[(3-methylisoxazol-5-yl)methyl]amino}-7H-purin-2-yl)-1,2,4-oxadiazol-5(2H)-one] the IC50 ([1]; Table 11) was 12.6 nM.

For `Cc1ccc(C)c(-c2nc3nc(C(N)=O)nc(N[C@H](C)C4CCC4)c3n2Cc2ccc(C(F)(F)F)cc2)c1` [Example 12.31, 6-{[(1R)-1-cyclobutylethyl]amino}-8-(2,5-dimethylphenyl)-7-[4-(trifluoromethyl)benzyl]-7H-purine-2-carboxamide], the IC50 [1, 3] was 37.7 nM.

With `Cc1nc2nc(-c3noc(=O)[nH]3)nc(N[C@H](C)C3CCC3)c2n1C[C@H]1CC[C@H](C)CC1` [Example 21.10, 3-(6-{[(1R)-1-cyclobutylethyl]amino}-8-methyl-7-[(trans-4-methylcyclohexyl)methyl]-7H-purin-2-yl)-1,2,4-oxadiazol-5(4H)-one] the IC50 ([1]; Table 21) was 37.7 nM.

Compound `CC(c1ccccc1F)c1nc2nc(-c3noc(=O)[nH]3)nc(N[C@H](C)C3CCC3)c2n1C[C@H]1CC[C@H](C)CC1` (stereo partly drawn) [Example 21.33, 3-(6-{[(1R)-1-cyclobutylethyl]amino}-8-[1-(2-fluorophenyl)ethyl]-7-[(trans-4-methylcyclohexyl)methyl]-7H-purin-2-yl)-1,2,4-oxadiazol-5(4H)-one] has an IC50 ([1]; Table 21) of 5.67 nM.

Source: patent publication EP2951180B1, “2,6,7,8 SUBSTITUTED PURINES AS HDM2 INHIBITORS” (Merck Sharp & Dohme Corp., priority 2013, dated 2014)
